# scFv variants of Ab-14 (light chain) against a SARS-CoV-2 spike peptide

Reference: Li et al. 2023, doi:10.1038/s41467-023-39022-2. File: FLAb, binding data.

The target is the same throughout: PDVDLGDISGINAS, from the HR2 region of SARS-CoV-2 spike.

Parent scFv Ab-14: VH joined to VL by the linker GGGGSGGGGSGGGGS. Changes lie in the light chain CDRs alone.
VH: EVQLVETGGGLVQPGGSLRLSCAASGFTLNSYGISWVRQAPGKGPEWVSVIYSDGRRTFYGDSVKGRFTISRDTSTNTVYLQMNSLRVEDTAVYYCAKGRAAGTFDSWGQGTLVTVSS
VL: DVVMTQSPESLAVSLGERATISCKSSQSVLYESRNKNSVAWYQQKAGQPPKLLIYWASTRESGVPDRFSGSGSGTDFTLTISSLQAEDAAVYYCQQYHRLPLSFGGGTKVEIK

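Phage display of a naive human antibody library on the peptide gave the parent. This is the validation round: designs drawn from the data on random variants, tested in the same kind of assay. Group labels follow the data file (Ctrl: baseline library sampled from a position-specific scoring matrix, with some repeated check sequences; En: ensemble of fine-tuned language models; GP: Gaussian process model; HC: hill climbing; Gen: genetic algorithm; Gibbs: Gibbs sampling; a sequence that several methods proposed may carry one label only). AlphaSeq pools MATa yeast showing the antibodies with MATalpha yeast showing the peptide. Mating (16 h, 30 °C) was followed by selection of diploids and sequencing of their barcodes. A regression on co-assayed BCL2-family reference pairs converts the normalised counts of each replicate to an apparent Kd. Mating was done six times.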

The parent's light chain CDRs are KSSQSVLYESRNKNSVA, WASTRES, QQYHRLPLS; each variant's own CDRs replace them letter for letter.
Numbers give log10(Kd / nM), so 0 is 1 nM and 3 is 1 µM. Smaller is tighter.
Averages over replicates are reported, and they cover detected replicates only.
"no signal" means that the variant was in the library but no mating with the target was seen in any replicate; the authors take this as a sign of poor binding, and no number exists.
As a blank, each scFv also met three strains without target: over all light chain designs, 4% of these pairings were detected, typically at 2.64 and seldom below 1.59.
The range of this assay differs from that of the first round, and the authors advise against merging the two.
The authors' rule: three or more of the six replicates give a measured affinity, fewer mean a poor binder.

{"CDR-L1": "HLSQSVLYESRNKNSVA", "CDR-L2": "NASTRFS", "CDR-L3": "QQYHRLPLS", "group": "GP_Gen", "log10 Kd (nM), mean": "-0.10", "replicates with signal": "6/6"}
{"CDR-L1": "TISNMFMMENQFKNSVA", "CDR-L2": "QASTREN", "CDR-L3": "QCYDRLPLS", "group": "En_HC", "log10 Kd (nM), mean": "1.94", "replicates with signal": "6/6"}
{"CDR-L1": "KLQQSSLYESRNKNSVA", "CDR-L2": "NASTRES", "CDR-L3": "QQYHRLPLS", "group": "GP_Gen", "log10 Kd (nM), mean": "-0.36", "replicates with signal": "6/6"}
{"CDR-L1": "HMKDELGLGPKTYSSVA", "CDR-L2": "HGSMREP", "CDR-L3": "QDYYRLPLG", "group": "En_Gibbs", "log10 Kd (nM), mean": "1.76", "replicates with signal": "6/6"}
{"CDR-L1": "QLLMATMQGTYNRNSVA", "CDR-L2": "HAETRED", "CDR-L3": "QSYHRLPLS", "group": "En_HC", "log10 Kd (nM), mean": "1.56", "replicates with signal": "5/6"}
{"CDR-L1": "KSSQSVLYESHNKNSVA", "CDR-L2": "SASTRES", "CDR-L3": "QQYHRLPLS", "group": "Ctrl", "log10 Kd (nM), mean": "0.67", "replicates with signal": "6/6"}
{"CDR-L1": "KLSWSYLYESRNKNSVA", "CDR-L2": "NASTRES", "CDR-L3": "QQYHRLPLS", "group": "GP_Gen", "log10 Kd (nM), mean": "0.09", "replicates with signal": "6/6"}
{"CDR-L1": "KFSQSVLYESRTKNSVA", "CDR-L2": "NASTRES", "CDR-L3": "QSYHRLPLS", "group": "GP_HC", "log10 Kd (nM), mean": "0.29", "replicates with signal": "6/6"}
{"CDR-L1": "KLVGSWLYESRNKNSVA", "CDR-L2": "RASQRCS", "CDR-L3": "QQYHRLPLS", "group": "GP_Gibbs", "log10 Kd (nM), mean": "1.55", "replicates with signal": "6/6"}
{"CDR-L1": "KSMQSQEYESRNKNSVA", "CDR-L2": "EASTREL", "CDR-L3": "QQYHRLPLS", "group": "GP_Gibbs", "log10 Kd (nM), mean": "0.12", "replicates with signal": "6/6"}
{"CDR-L1": "KSSQSVLYEMRNNNSVA", "CDR-L2": "WASTRES", "CDR-L3": "QQYHSLPLS", "group": "Ctrl", "log10 Kd (nM), mean": "2.29", "replicates with signal": "2/6"}
{"CDR-L1": "KSSQSVLYESRNHNSIS", "CDR-L2": "WASTRES", "CDR-L3": "QQYHRLPLS", "group": "Ctrl", "log10 Kd (nM), mean": "2.61", "replicates with signal": "1/6"}
{"CDR-L1": "KLQQSWEYESRNSNSVA", "CDR-L2": "QASTRMS", "CDR-L3": "QQYHRLPLS", "group": "GP_Gibbs", "log10 Kd (nM), mean": "0.60", "replicates with signal": "6/6"}
{"CDR-L1": "NISQMFFMETKHVNNVA", "CDR-L2": "QTSTREE", "CDR-L3": "QDYHRLPLS", "group": "En_HC", "log10 Kd (nM), mean": "0.39", "replicates with signal": "6/6"}
{"CDR-L1": "KSSQSVLYESRNANSVA", "CDR-L2": "WDSTRES", "CDR-L3": "QQYHRLPLS", "group": "Ctrl", "log10 Kd (nM), mean": "1.53", "replicates with signal": "3/6"}
{"CDR-L1": "KVQQSELGLSRNKQSVA", "CDR-L2": "EASTRED", "CDR-L3": "QQYHRLPLS", "group": "GP_Gibbs", "log10 Kd (nM), mean": "0.11", "replicates with signal": "6/6"}
{"CDR-L1": "KSSISYPYESRNTNSVA", "CDR-L2": "EASTRES", "CDR-L3": "QQYHRLPLS", "group": "GP_HC", "log10 Kd (nM), mean": "0.26", "replicates with signal": "6/6"}
{"CDR-L1": "KSSQSVLDESRCKNSVA", "CDR-L2": "WASTRES", "CDR-L3": "QQYHRSPLS", "group": "Ctrl", "log10 Kd (nM), mean": "1.60", "replicates with signal": "1/6"}
{"CDR-L1": "MISQLYNMGTFAINSVA", "CDR-L2": "QASLRNE", "CDR-L3": "QQYDRLPLT", "group": "En_Gen", "log10 Kd (nM), mean": "2.27", "replicates with signal": "1/6"}
{"CDR-L1": "KIGMVLNQMLHQKNNVA", "CDR-L2": "DLVVREN", "CDR-L3": "QQYHRLPLS", "group": "En_Gen", "log10 Kd (nM), mean": "0.75", "replicates with signal": "6/6"}
{"CDR-L1": "KSSQSVLDESHNKNSVA", "CDR-L2": "WASTRES", "CDR-L3": "QQYHRLPLC", "group": "Ctrl", "log10 Kd (nM), mean": "0.84", "replicates with signal": "6/6"}
{"CDR-L1": "KVSQSVLYESRNKNSVA", "CDR-L2": "DASTRES", "CDR-L3": "QQYHRLPLQ", "group": "GP_Gen", "log10 Kd (nM), mean": "-0.18", "replicates with signal": "6/6"}
{"CDR-L1": "KWSWSWLLESRVWNSVA", "CDR-L2": "NASLRES", "CDR-L3": "QQYHRLPLS", "group": "GP_Gibbs", "log10 Kd (nM), mean": "no signal", "replicates with signal": "0/6"}
{"CDR-L1": "HITDLHYFGNEGEWNIA", "CDR-L2": "DKNISVM", "CDR-L3": "QQYFRLPLS", "group": "En_Gibbs", "log10 Kd (nM), mean": "0.39", "replicates with signal": "6/6"}
{"CDR-L1": "KSSQSVLYTSRNKNSVA", "CDR-L2": "WASTRNS", "CDR-L3": "QQYHRLPLS", "group": "Ctrl", "log10 Kd (nM), mean": "2.63", "replicates with signal": "4/6"}

Extract of 4 entries:

CDR-L1,CDR-L2,CDR-L3,group,"log10 Kd (nM), mean",replicates with signal
HITDLHYFGNEGEWNIA,DKNISVM,QQYFRLPLS,En_Gibbs,0.39,6/6
KSSQSVLYESHNKNSVA,SASTRES,QQYHRLPLS,Ctrl,0.67,6/6
KSSISYPYESRNTNSVA,EASTRES,QQYHRLPLS,GP_HC,0.26,6/6
KLSWSYLYESRNKNSVA,NASTRES,QQYHRLPLS,GP_Gen,0.09,6/6